The assay deals with Cricetinae gen. sp. The assay can be described thus: Compound was evaluated for the reduction of liver cholesterol ester levels in the cholesterol-fed Hamster model.

Our source for the ED50 values is ChEMBL document CHEMBL1159185, “Metabolism and structure activity data based drug design: discovery of () SCH 53079 an analog of the potent cholesterol absorption inhibitor () SCH 48461” (1996).

In turn, `COc1ccc([C@@H]2[C@@H](CCCc3ccccc3)C(=O)N2c2ccc(OC)cc2)cc1` registered an ED50 of 2.2 mg/kg.

A word on the ED50: it is the midpoint of the dose-response relation.
